Results on one compound are retold here after patent publication US20230406906A1, “SERPIN PEPTIDES AND METHODS OF USING THE SAME” (SERPIN PHARMA, LLC, priority 2022, published 2023).

For experiment [1], the system named is GAP-43. Briefly: RT-qPCR of GAP-43 mRNA in primary cultured adult DRG neurons. The following applies: 240 nM, 24 h, vs vehicle. It counts as cell-based, rat. The procedure: Neurite outgrowth in primary cultures of adult DRG neurons: Primary DRGs neurons were isolated from adult male Sprague Dawley rats and cultured as previously described for mice with modifications.^53 The DRGs were stripped of their roots and collected in Hanks Buffered Salt Solution (HBSS) on ice. DRGs were enzymatically digested and approximately 4000 DRG neurons were plated in each well of a 12-well tissue culture plate (Thermo Fisher Scientific, Waltham, MA, USA). All DRG neurons were cultured at 37° C. in 5% CO2 for 54 h in DMEM/F12 containing 2% B27 and 1% FBS with vehicle or SP163M (0-500 ng/ml) added every 24 h. Primary cultured DRG neurons were imaged by phase contrast and the viability of cells was assessed by Trypan blue. Primary DRG neurons were cultured, fixed in 4% paraformaldehyde, and immunofluorescence was performed using a mouse anti-βIII-tubulin primary antibody (Promega, Madison, WI, USA; cat #G7121, 1:250) and then with Alexa Fluor-488 anti-mouse antibody (Life Technologies, Carlsbad, CA, USA) as secondary antibody. DRG neurons were imaged at 20× and 40× manually, and the longest neurite length per cell was measured in 11 images from multiple wells and separate experiments. Approximately 222 and 144 neurons were measured in SP16 and control groups, respectively. Quantification was performed in a blinded manner. […]
(In general: In qPCR the cycle at which signal appears reflects the starting amount.)

Experiment [2] concerns GFAP. Briefly: Immunohistochemistry of L4 DRGs two days after PNL, GFAP. It counts as in vivo, mice. The procedure: Neuropathic pain model: Mice (n=30) were randomly assigned to two different groups: SP163M (2 μg/g; s.c. 100 μl) and vehicle (H20 s.c. 100 μl). Mice were treated 1 h prior to partial nerve ligation (PNL) and then daily at least 1 h prior to behavior testing for 2 weeks. PNL studies were performed as previously disclosed^59 and adapted for mice.^57 Male mice were anesthetized with 3% isoflurane (Vetone, USA) in 1.5 L/min oxygen (Praxair, USA) and maintained with 2.5% isoflurane. An incision was made along the long axis of the femur. The sciatic nerve was exposed at mid-thigh level by separating the biceps femoris and the gluteus superficialis and then carefully cleared of surrounding connective tissue. A 9-0 nylon suture (Ethicon, Inc., Somerville, NJ, USA) was inserted into the nerve and ligated so that the one-third to one-half of the nerve was included. The muscle and skin layers were closed using Reflex7 7 mm stainless steel wound clips (CellPoint Scientific, Inc., Gaithersburg, MD, USA). For behavior testing, mice were acclimated, and baseline tested for one week prior to PNL. […] Filaments were presented in a consecutive fashion either ascending or descending using the up-down method as previously disclosed^60 and modified for mice.^57,61 The filament that caused paw withdrawal 50% of the time (the 50% PWT) was determined. […]

Experiment [3] concerns Balb/C mice. In words: Calcipotriol (MC903)/OVA induced atopic dermatitis model, eosinophils by MBP staining. The format is in vivo. On the procedure: Dermatitis was induced on the skin of BALB/c mice with a series of calcipotriol (MC903) and OVA challenges over an 8-week period. SP163M (100 μg/mouse), A1AT (2 mg/mouse) or vehicle (DDW) was given twice weekly starting at 4 weeks. The number of eosinophils infiltrating the epithelial sections were quantified by MBP staining.
Accordingly, SP163M improved outcomes in the atopic dermatitis animal model.

Take `CCCC[C@H](NC(=O)[C@H](CC(C)C)NC(=O)[C@H](Cc1ccccc1)NC(=O)[C@@H](NC(=O)[C@H](Cc1ccccc1)NC(=O)[C@@H]1CCCN1C(=O)[C@H](CCCCN)NC(=O)[C@H](CC(N)=O)NC(=O)[C@H](Cc1ccccc1)NC(=O)[C@H](CCCCN)NC(=O)[C@@H](NC(C)=O)C(C)C)C(C)C)C(=O)N[C@H](C(=O)N[C@@H](CCC(=O)O)C(=O)N[C@@H](CCC(N)=O)C(=O)N[C@@H](CC(N)=O)C(=O)N[C@H](C(=O)N[C@@H](CCCCN)C(N)=O)[C@@H](C)O)[C@@H](C)CC` [SP163M, Ac-VKFNKPFVFLNIeIEQNTK-NH2]: in experiment [1], the “GAP-43 mRNA levels” value is given as “significantly increased the regenerative associated gene compared to vehicle”. Further, the “decrease in GFAP levels in DRGs” value in experiment [2] is 6 fold. Further, in experiment [3] (100 μg/mouse twice weekly starting at 4 weeks, p=0.045), the “eosinophils per section vs vehicle control” value is given as “significantly lower levels of eosinophils per section compared to vehicle control”. In experiment [3] (100 μg/mouse vs A1AT 2 mg/mouse), the “eosinophilic infiltration compared to A1AT” value is “decreased eosinophilic infiltration compared to A1AT given at 20× higher dose”.
